Measurements from patent publication US5919918.

How the values were obtained:
[1] = molecular target: α-amylase from guts of adult cockroaches (Blatta orientalis), crude extract (Blatta orientalis (cockroach))
[2] = molecular target: Human α-amylase (purchased from Sigma) (human)

inhibition of α-amylase activity (method of Bernfeld, starch substrate) [1]: > 70% | inhibition of α-amylase activity (method of Bernfeld, starch substrate) [2]: > 70%
Substance: SIα3 (Sorgum bicolor homologue, α-amylase inhibitor) (from UniProt P21925)
